Laboratory results published in patent publication EP4768477A1 (Yichang Humanwell Pharmaceutical Co., Ltd., priority 2024, dated 2025).

Chains of the proteins cited; added tags and fusions are not shown. Lines headed by an entry give the natural chain unless they say otherwise; changes in a name come on top.
UniProt P41145: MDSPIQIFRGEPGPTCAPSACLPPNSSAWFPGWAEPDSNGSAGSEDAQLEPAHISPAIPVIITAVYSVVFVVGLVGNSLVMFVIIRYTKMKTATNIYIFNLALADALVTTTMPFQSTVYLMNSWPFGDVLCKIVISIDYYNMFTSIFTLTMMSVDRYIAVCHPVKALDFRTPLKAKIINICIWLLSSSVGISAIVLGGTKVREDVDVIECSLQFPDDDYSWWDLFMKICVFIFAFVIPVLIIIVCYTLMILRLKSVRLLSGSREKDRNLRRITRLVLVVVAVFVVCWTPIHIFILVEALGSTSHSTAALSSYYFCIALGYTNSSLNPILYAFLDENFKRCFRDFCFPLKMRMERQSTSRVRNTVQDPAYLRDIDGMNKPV
UniProt P41146: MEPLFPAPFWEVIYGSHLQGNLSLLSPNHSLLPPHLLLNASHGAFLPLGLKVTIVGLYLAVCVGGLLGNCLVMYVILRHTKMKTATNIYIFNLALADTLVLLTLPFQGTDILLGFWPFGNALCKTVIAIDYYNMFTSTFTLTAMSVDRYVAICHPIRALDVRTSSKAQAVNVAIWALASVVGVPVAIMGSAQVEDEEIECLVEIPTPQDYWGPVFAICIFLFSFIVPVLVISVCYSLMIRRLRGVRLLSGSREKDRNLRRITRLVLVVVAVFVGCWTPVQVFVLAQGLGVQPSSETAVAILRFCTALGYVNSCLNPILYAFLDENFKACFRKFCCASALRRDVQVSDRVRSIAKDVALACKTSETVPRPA

Key:
hKOR = hKOR (Homo sapiens, UniProt P41145); test: Agonistic function, cAMP method, 293-KOR cells; settings: for hKOR Emax (%): forskolin; for EC50: read-out: hKOR EC50, forskolin
hNOPr (ORL-1 receptor) = hNOPr (ORL-1 receptor) (Homo sapiens, UniProt P41146); test: Agonistic function, cAMP method, 293-NOPr cells; settings: for hNOPr (ORL-1 receptor) Emax (%): forskolin; for EC50: read-out: hNOPr (ORL-1 receptor) EC50, forskolin
[1] = system: formalin-induced inflammatory pain model; test: Pharmacodynamic test in formalin-induced inflammatory pain model; type: in vivo; settings: male SD rats, 0-60 minutes after formalin, mean ± standard deviation, n=6

Row | SMILES | hKOR Emax (%) (hKOR) | EC50 (hKOR) | hNOPr (ORL-1 receptor) Emax (%) (hNOPr (ORL-1 receptor)) | EC50 (hNOPr (ORL-1 receptor)) | MPE% ([1]; 1 mg/kg s.c) | MPE% ([1]; 3 mg/kg s.c)
1 | CNC(=O)Cn1c(=O)n(C2CCN(C3CCC4(CC3)CC4)CC2)c2cc(F)c(F)cc21 | 56.76% | 5360 nM | 100.00% | 7.35 nM |  | 
2 | CNC(=O)Cn1c(=O)n(C2CCN([C@H]3CC[C@@H](C(C)C)CC3)CC2)c2cc(F)c(F)cc21 (relative stereo) | 103.00% | 1720 nM | 103.10% | 0.1 nM | 100.5±5.7 % | 
3 | CC(C)[C@H]1CC[C@@H](N2CCC(n3c(=O)n(CC(=O)N(C)C)c4cc(F)c(F)cc43)CC2)CC1 (relative stereo) | 55.37% | 2250 nM | 92.25% | 8.77 nM |  | 79.0±4.6 %
4 | CCS(=O)(=O)NCCN1Cc2cc(F)c(F)cc2N(C2CCN([C@H]3CC[C@@H](C(C)C)CC3)CC2)C1=O (relative stereo) |  | 601 nM |  | 5.85 nM |  | 
5 | CC(C)C1CCC(N2CCC(N3C(=O)N(CCNS(C)(=O)=O)Cc4cc(F)c(F)cc43)CC2)CC1 (centres unmarked) |  | 561 nM |  | 6.47 nM |  | 
6 | CS(=O)(=O)Cn1c(=O)n(C2CCN(C3CCC4(CC3)CC4)CC2)c2cc(F)c(F)cc21 | 82.79% | 1150 nM | 96.53% | 9.2 nM | 64.5±15.3 % | 
7 | CC1(C)CCC(N2CCC(n3c(=O)n(CS(C)(=O)=O)c4cc(F)c(F)cc43)CC2)CC1 | 70.20% | 715 nM | 99.74% | 10.7 nM |  | 78.2±21.8 %
8 | CS(=O)(=O)Cn1c(=O)n(C2CCN(C3CCC4(CCC4)CC3)CC2)c2cc(F)c(F)cc21 | 49.84% | 478 nM | 100.3% | 3.5 nM | 55.8±14.8 % | 
9 | CCNC(=O)Cn1c(=O)n(C2CCN(C3CCC(C)(C)CC3)CC2)c2cc(F)c(F)cc21 | 68.93% | 474 nM | 104.70% | 21.7 nM |  | 
10 | CC1(C)CCC(N2CCC(n3c(=O)n(CS(C)(=N)=O)c4cc(F)c(F)cc43)CC2)CC1 (centres unmarked) | 84.67% | 491 nM | 99.5% | 48.6 nM |  | 
11 | CC1(C)CCC(N2CCC(n3c(=O)n(CCS(N)(=O)=O)c4cc(F)c(F)cc43)CC2)CC1 | 73.3% | 2060 nM | 98.3% | 24.5 nM |  | 
12 | CNC(=O)Cn1c(=O)n(C2CCN(C3CCC(C)(C)CC3)CC2)c2cc(Cl)c(F)cc21 | 56.4% | 2260 nM | 84.3% | 19.6 nM |  | 
13 | CNC(=O)Cn1c(=O)n(C2CCN(C3CCC(C)(C)CC3)CC2)c2cc(F)c(F)cc21 | 57.26% | 811 nM | 104.10% | 3.12 nM |  | 
